Test results reported in patent publication US11472877 (Alector, dated 2022).

By UniProt entry, the sequences of proteins in these tests, tags left out. Residues count along the entry.
UniProt Q9NP99, 21-205 limits assumed: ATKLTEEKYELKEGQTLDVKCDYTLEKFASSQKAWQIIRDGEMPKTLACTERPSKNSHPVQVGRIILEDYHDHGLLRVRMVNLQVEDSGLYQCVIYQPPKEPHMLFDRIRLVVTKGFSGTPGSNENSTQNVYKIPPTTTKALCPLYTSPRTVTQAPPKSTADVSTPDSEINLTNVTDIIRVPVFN

Legend:
Human TREM1-Fc = target: T1, Human TREM1-Fc (human, UniProt Q9NP99 21-205, limits assumed); assay: Fab on human TREM1-Fc, monovalent; method not stated
T1 construct: not shown: Fc part

human TREM1 = human TREM1 (human, UniProt Q9NP99 21-205, limits assumed); assay: IgG, monovalent; method and antigen form not stated

Kd (Human TREM1-Fc) [nM] | koff (Human TREM1-Fc) [s⁻¹] | kon (Human TREM1-Fc) [M⁻¹ s⁻¹] | Kd (human TREM1) [nM] | koff (human TREM1) [s⁻¹] | kon (human TREM1) [M⁻¹ s⁻¹] | Binder
59.6 | 0.00861 | 145000 |  |  |  | T1-9 Fab (Fab, V domains shown, Fab of T1-9) VH: QVQLVQSGAEVKKPGASVKVSCKASGYTFTSYYMHWVRQAPGQGLEWMGIINPSGGSTSYAQKFQGRVTMTRDTSTSTVYMELSSLRSEDTAVYYCAREAGYDISSAFDIWGQGTMVTVSS VL: not shown
123 | 0.013 | 106000 |  |  |  | T1-6 Fab (Fab, V domains shown, Fab of T1-6) VH: QVQLVQSGAEVKKPGASVKVSCKASGYTFTSYYMHWVRQAPGQGLEWMGVINPSGGSTSYAQKFQGRVTMTRDTSTSTVYMELSSLRSEDTAVYYCARESGHSYVSSFDPWGQGTLVTVSS VL: not shown
14.1 | 0.00175 | 124000 |  |  |  | T1-53 Fab (Fab, V domains shown, Fab of T1-53) VH: QVQLVQSGAEVKKPGASVKVSCKASGYTFTSYYIHWVRQAPGQGLEWMGIINPSGGSTSYAQKFQGRVTMTRDTSTSTVYMELSSLRSEDTAVYYCARESGYHVSTAFDIWGQGTMVTVSS VL: not shown
20.7 | 0.00466 | 225000 |  |  |  | T1-59 Fab (Fab, V domains shown, Fab of T1-59) VH: QVQLQESGPGLVKPSETLSLTCAVSGYSISSGYYWAWIRQPPGKGLEWIGSIYHSGSTYYNPSLKSRVTISVDTSKNQFSLKLSSVTAADTAVYYCARDLGGYEGAFDPWGQGTLVTVSS VL: not shown
14.9 | 0.00667 | 447000 |  |  |  | T1-38 Fab (Fab, V domains shown, Fab of T1-38) VH: QVQLVESGGGVVQPGRSLRLSCAASGLTFSSYGMHWVRQAPGKGLEWVAVISYDGSNKYYADSVKGRFTISRDNSKNTLYLQMNSLRAEDTAVYYCARERGTYYYASGWANWGQGTLVTVSS VL: not shown
29.6 | 0.00633 | 214000 |  |  |  | T1-44 Fab (Fab, V domains shown, Fab of T1-44) VH: QVQLVQSGAEVKKPGASVKVSCKASGYTFTSYYMHWVRQAPGQGLEWMGVINPSGGSTSYAQKFQGRVTMTRDTSTSTVYMELSSLRSEDTAVYYCAREGSGYDESMDVWGQGTTVTVSS VL: not shown
148 | 0.00802 | 54300 |  |  |  | T1-5 Fab (Fab, V domains shown, Fab of T1-5) VH: QVQLVQSGAEVKKPGASVKVSCKASGYTFTSYYMHWVRQAPGQGLEWMGVINPSGGSTSYAQKFQGRVTMTRDTSTSTVYMELSSLRSEDTAVYYCARESDGIDSYFDYWGQGTLVTVSS VL: not shown
6.07 | 0.000634 | 104000 |  |  |  | T1-10 Fab (Fab, V domains shown, Fab of T1-10) VH: QVQLVQSGAEVKKPGASVKVSCKASGYTFTSYYMHWVRQAPGQGLEWMGIINPSGGSTSYAQKFQGRVTMTRDTSTSTVYMELSSLRSEDTAVYYCAREGSGSWETLDVWGQGTMVTVSS VL: not shown
 |  |  | 72.6 | 0.0115 | 158000 | T1-5 (antibody, IgG1, V domains shown, huIgG1; also called TI-5; ADI-19071) VH: QVQLVQSGAEVKKPGASVKVSCKASGYTFTSYYMHWVRQAPGQGLEWMGVINPSGGSTSYAQKFQGRVTMTRDTSTSTVYMELSSLRSEDTAVYYCARESDGIDSYFDYWGQGTLVTVSS VL: not shown
65.5 | 0.00775 | 118000 |  |  |  | T1-8 Fab (Fab, V domains shown, Fab of T1-8) VH: QVQLVQSGAEVKKPGASVKVSCKASGYTFTSYYMHWVRQAPGQGLEWMGIINPSGGSTSYAQKFQGRVTMTRDTSTSTVYMELSSLRSEDTAVYYCAREVSMTAASLDVWGQGTMVTVSS VL: not shown
10.8 | 0.00143 | 133000 |  |  |  | T1-46 Fab (Fab, V domains shown, Fab of T1-46) VH: QVQLVQSGAEVKKPGASVKVSCKASGYTFTSYYMHWVRQAPGQGLEWMGVINPSGGSTSYAQKFQGRVTMTRDTSTSTVYMELSSLRSEDTAVYYCAREGSGYDESMDVWGQGTTVTVSS VL: not shown
34.1 | 0.00446 | 131000 |  |  |  | T1-48 Fab (Fab, V domains shown, Fab of T1-48) VH: QVQLVQSGAEVKKPGASVKVSCKASGYTFTSYYMHWVRQAPGQGLEWMGVINPGGGSTSYAQKFQGRVTMTRDTSTSTVYMELSSLRSEDTAVYYCAREAGQTSSALDVWGQGTMVTVSS VL: not shown
9.06 | 0.00146 | 161000 |  |  |  | T1-45 Fab (Fab, V domains shown, Fab of T1-45) VH: QVQLVQSGAEVKKPGASVKVSCKASGYTFTSYYMHWVRQAPGQGLEWMGVINPSGGSTSYAQKFQGRVTMTRDTSTSTVYMELSSLRSEDTAVYYCAREGSGYDESMDVWGQGTTVTVSS VL: not shown
26.1 | 0.00875 | 335000 |  |  |  | T1-69 Fab (Fab, V domains shown, Fab of T1-69) VH: QVQLVQSGAEVKKPGASVKVSCKASGYTFTSYGISWVRQAPGQGLEWMGWISAYNGNTNYAQKLQGRVTMTTDTSTSTAYMELRSLRSDDTAVYYCARGAGMYDGSPLGMDVWGQGTTVTVSS VL: DIQMTQSPSSVSASVGDRVTITCRASQGISSWLAWYQQKPGKAPKLLIYAASNLQSGVPSRFSGSGSGTDFTLTISSLQPEDFATYYCQQATAHPPTFGGGTKVEIK
22.3 | 0.0274 | 1.23e+06 |  |  |  | T1-71 Fab (Fab, V domains shown, Fab of T1-71) VH: EVQLVESGGGLVQPGRSLRLSCAASGFTFGDYAMHWVRQAPGKGLEWVSGISWNSGSIGYADSVKGRFTISRDNAKNSLYLQMNSLRAEDTALYYCAKGPRRTSHLDIWGQGTMVTVSS VL: DIQMTQSPSSVSASVGDRVTITCRASQGIDSWLAWYQQKPGKAPKLLIYAASSLQSGVPSRFSGSGSGTDFTLTISSLQPEDFATYYCQQATSLPLTFGGGTKVEIK
22.6 | 0.00514 | 227000 |  |  |  | T1-58 Fab (Fab, V domains shown, Fab of T1-58) VH: QLQLQESGPGLVKPSETLSLTCTVSGGSISSSSYYWGWIRQPPGKGLEWIGSIYYSGSTYYNPSLKSRVTISVDTSKNQFSLKLSSVTAADTAVYYCARQEYGDGYFDLWGRGTLVTVSS VL: not shown
29.3 | 0.0217 | 742000 |  |  |  | T1-76 Fab (Fab, V domains shown, Fab of T1-76) VH: not shown VL: DIQMTQSPSTLSASVGDRVTITCRASQSISSWLAWYQQKPGKAPKLLIYDASSLESGVPSRFSGSGSGTEFTLTISSLQPDDFATYYCQQHSTYSWTFGGGTKVEIK
10.7 | 0.00138 | 129000 |  |  |  | T1-43 Fab (Fab, V domains shown, Fab of T1-43) VH: QVQLVQSGAEVKKPGASVKVSCKASGYTFTSYYMHWVRQAPGQGLEWMGIINPSGGSTSYAQKFQGRVTMTRDTSTSTVYMELSSLRSEDTAVYYCAREAGNYYDIESAFDIWGQGTMVTVSS VL: not shown
111 | 0.00751 | 67700 |  |  |  | T1-61 Fab (Fab, V domains shown, Fab of T1-61) VH: QVQLQESGPGLVKPSETLSLTCAVSGYSISSGYYWGWIRQPPGKGLEWIGSIYHSGSTYYNPSLKSRVTISVDTSKNQFSLKLSSVTAADTAVYYCARHDDYLSSFDPWGQGTLVTVSS VL: not shown
28 | 0.00391 | 140000 |  |  |  | T1-50 Fab (Fab, V domains shown, Fab of T1-50) VH: QVQLVQSGAEVKKPGASVKVSCKASGYTFTSYYMHWVRQAPGQGLEWMGIINPGGGSTSYAQKFQGRVTMTRDTSTSTVYMELSSLRSEDTAVYYCAREAGTMSSAFDIWGQGTMVTVSS VL: not shown
 |  |  | 32.8 | 0.00502 | 153000 | T1-50 (antibody, IgG1, V domains shown, huIgG1; also called TI-50; ADI-19125) VH: QVQLVQSGAEVKKPGASVKVSCKASGYTFTSYYMHWVRQAPGQGLEWMGIINPGGGSTSYAQKFQGRVTMTRDTSTSTVYMELSSLRSEDTAVYYCAREAGTMSSAFDIWGQGTMVTVSS VL: not shown
38.5 | 0.00664 | 172000 |  |  |  | T1-1 Fab (Fab, V domains shown, Fab of T1-1) VH: QVQLVQSGAEVKKPGSSVKVSCKASGGTFSSYAISWVRQAPGQGLEWMGGIIPIFGTANYAQKFQGRVTITADESTSTAYMELSSLRSEDTAVYYCARGQGSDHYYYGMDVWGQGTTVTVSS VL: not shown
31 | 0.00326 | 105000 |  |  |  | T1-55 Fab (Fab, V domains shown, Fab of T1-55) VH: QVQLVQSGAEVKKPGASVKVSCKASGYTFTSYYMHWVRQAPGQGLEWMGVINPSGGSTSYAQKFQGRVTMTRDTSTSTVYMELSSLRSEDTAVYYCARGADYYAGFDYWGQGTLVTVSS VL: not shown
16.8 | 0.0108 | 644000 |  |  |  | T1-42 Fab (Fab, V domains shown, Fab of T1-42) VH: QVQLVESGGGVVQPGRSLRLSCAASGFTFSSYGMHWVRQAPGKGLEWVAVIWYDGSNKGYADSVKGRFTISRDNSKNTLYLQMNSLRAEDTAVYYCARELMVTSGGWLYGMDVWGQGTTVTVSS VL: EIVMTQSPATLSVSPGERATLSCRASQSVSSNLAWYQQKPGQAPRLLIYGASTRATGIPARFSGSGSGTEFTLTISSLQSEDFAVYYCQQYNVHPPRTFGGGTKVEIK
5.39 | 0.000828 | 154000 |  |  |  | T1-49 Fab (Fab, V domains shown, Fab of T1-49) VH: QVQLVQSGAEVKKPGASVKVSCKASGYTFTSYYMHWVRQAPGQGLEWMGIINPSGGSTSYAQKFQGRVTMTRDTSTSTVYMELSSLRSEDTAVYYCAREAGSWLISTAFDIWGQGTMVTVSS VL: not shown
47 | 0.00851 | 181000 |  |  |  | T1-4 Fab (Fab, V domains shown, Fab of T1-4) VH: QVQLVQSGAEVKKPGSSVKVSCKASGGTFSSYAISWVRQAPGQGLEWMGGIIPIFGTANYAQKFQGRVTITADESTSTAYMELSSLRSEDTAVYYCARHYYYGYAYFDLWGRGTLVTVSS VL: EIVMTQSPATLSVSPGERATLSCRASQSVSSNLAWYQQKPGQAPRLLIYGASTRATGIPARFSGSGSGTEFTLTISSLQSEDFAVYYCQQFNNHPITFGGGTKVEIK
8.76 | 0.00523 | 597000 |  |  |  | T1-41 Fab (Fab, V domains shown, Fab of T1-41) VH: not shown VL: DIQLTQSPSSVSASVGDRVTITCRASQDISSWLAWYQQKPGKAPKLLIYAASSLQSGVPSRFSGSGSGTDFTLTISSLQPEDFATYYCQQAVIHPPYTFGGGTKVEIK
